Results as given in patent publication US20240246946A1, “MODULATORS OF TREX1” (Constellation Pharmaceuticals, Inc., priority 2021, published 2024).

Sequences of proteins named here, by UniProt entry; tags and fusion partners are left off.
UniProt Q9NSU2, whole entry: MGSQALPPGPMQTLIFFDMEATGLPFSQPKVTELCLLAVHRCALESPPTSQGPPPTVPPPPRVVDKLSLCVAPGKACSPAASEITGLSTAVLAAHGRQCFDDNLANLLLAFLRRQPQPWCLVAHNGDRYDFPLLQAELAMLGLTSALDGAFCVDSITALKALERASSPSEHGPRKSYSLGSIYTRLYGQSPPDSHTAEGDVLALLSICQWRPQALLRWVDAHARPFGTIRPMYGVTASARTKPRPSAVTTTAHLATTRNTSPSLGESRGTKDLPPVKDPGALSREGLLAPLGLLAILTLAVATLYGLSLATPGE
UniProt Q91XB0, whole entry: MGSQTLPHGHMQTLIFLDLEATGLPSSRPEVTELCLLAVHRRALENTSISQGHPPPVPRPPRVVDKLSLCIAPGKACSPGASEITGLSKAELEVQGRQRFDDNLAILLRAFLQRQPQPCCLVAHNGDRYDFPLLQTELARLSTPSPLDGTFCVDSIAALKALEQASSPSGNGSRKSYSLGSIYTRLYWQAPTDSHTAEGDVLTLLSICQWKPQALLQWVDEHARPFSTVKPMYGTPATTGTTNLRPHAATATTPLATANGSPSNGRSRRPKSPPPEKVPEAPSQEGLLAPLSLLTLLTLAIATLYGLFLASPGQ

Tests used:
full length human TREX1 = full length human TREX1 (Homo sapiens, UniProt Q9NSU2); assay: hTREX1 Biochemical Assay (fluorescence, dsDNA substrate degradation); conditions: read-out: hTREX1 IC50
full length mouse TREX1 = full length mouse TREX1 (Mus musculus, UniProt Q91XB0); assay: mTREX1 Biochemical Assay (fluorescence, dsDNA substrate degradation); conditions: read-out: mTREX1 IC50

IC50 (full length human TREX1): > 10 nM
IC50 (full length mouse TREX1): > 10 nM
SMILES: COC(C)(C)Cn1cc(C(c2ccccc2Cl)C(C)c2nc(C(=O)Nc3cnoc3)c(O)c(=O)n2C)cn1 (single isomer, unassigned)
